Tests used:
[1] = target: Mitotic checkpoint serine/threonine-protein kinase BUB1 (Homo sapiens) (UniProt O43683); conditions: Compound concentration 1000.0 nM
[2] = test system: Epidermal growth factor receptor (Homo sapiens), P00533 [UNDEFINED MUTATION]; conditions: Compound concentration 1000.0 nM

Amino acid sequences for entries named in this document (tags omitted). A change or cut given only in a name is not applied to a line headed by its entry.
UniProt O43683: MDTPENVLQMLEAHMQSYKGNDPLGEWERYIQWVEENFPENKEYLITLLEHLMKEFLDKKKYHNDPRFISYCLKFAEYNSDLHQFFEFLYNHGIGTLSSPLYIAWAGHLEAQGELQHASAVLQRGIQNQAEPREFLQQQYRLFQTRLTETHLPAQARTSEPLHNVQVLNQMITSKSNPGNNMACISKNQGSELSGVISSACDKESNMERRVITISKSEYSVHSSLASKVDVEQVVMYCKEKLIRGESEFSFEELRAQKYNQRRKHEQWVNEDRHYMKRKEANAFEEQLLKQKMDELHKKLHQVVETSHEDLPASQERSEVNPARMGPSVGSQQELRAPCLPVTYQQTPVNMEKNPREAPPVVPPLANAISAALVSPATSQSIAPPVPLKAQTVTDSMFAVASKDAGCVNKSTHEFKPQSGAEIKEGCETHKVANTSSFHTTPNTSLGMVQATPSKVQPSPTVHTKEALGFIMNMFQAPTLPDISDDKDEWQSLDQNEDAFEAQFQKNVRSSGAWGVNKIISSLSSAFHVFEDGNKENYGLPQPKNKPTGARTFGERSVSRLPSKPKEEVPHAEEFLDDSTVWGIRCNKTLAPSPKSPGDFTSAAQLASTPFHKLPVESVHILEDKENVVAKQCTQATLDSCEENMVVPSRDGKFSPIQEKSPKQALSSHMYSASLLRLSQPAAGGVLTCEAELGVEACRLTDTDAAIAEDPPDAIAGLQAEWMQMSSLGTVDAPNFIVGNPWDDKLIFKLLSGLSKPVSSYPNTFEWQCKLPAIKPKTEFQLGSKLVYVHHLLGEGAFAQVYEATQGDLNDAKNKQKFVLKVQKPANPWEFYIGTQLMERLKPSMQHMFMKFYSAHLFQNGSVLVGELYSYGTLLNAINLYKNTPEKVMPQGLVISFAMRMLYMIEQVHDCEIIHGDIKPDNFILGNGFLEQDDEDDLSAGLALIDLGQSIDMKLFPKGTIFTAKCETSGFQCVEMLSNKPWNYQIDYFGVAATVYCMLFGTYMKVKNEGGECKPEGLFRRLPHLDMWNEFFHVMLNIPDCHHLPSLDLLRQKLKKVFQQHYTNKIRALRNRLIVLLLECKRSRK

**Q.** Which residual activity [1] does the source give for `NS(=O)(=O)c1cc(NC(=O)Cc2ccccc2)ccc1Oc1cccc(Cl)c1` [BAY-1797] here?
**A.** 1.6%

**Q.** And the residual activity [2]?
**A.** 47%

Reference: ChEMBL document CHEMBL4507265 (2021)
